In patent publication US6972340B2, “Selective protein tyrosine phosphatatase inhibitors” (Abbott Laboratories, priority 2000, dated 2005):

Experiments:
Assay type in all cases: biochemical
Conditions in all cases: from Kic of Table 1
CD45 = target: T1, CD45 (Homo sapiens, UniProt P08575); test: Inhibition constant determination, selectivity panel: CD45 (pNPP hydrolysis)
T1 construct: purchased Biomol Research Laboratories, Inc. SE-135
T1 sequence (P08575 609-1306 limits assumed): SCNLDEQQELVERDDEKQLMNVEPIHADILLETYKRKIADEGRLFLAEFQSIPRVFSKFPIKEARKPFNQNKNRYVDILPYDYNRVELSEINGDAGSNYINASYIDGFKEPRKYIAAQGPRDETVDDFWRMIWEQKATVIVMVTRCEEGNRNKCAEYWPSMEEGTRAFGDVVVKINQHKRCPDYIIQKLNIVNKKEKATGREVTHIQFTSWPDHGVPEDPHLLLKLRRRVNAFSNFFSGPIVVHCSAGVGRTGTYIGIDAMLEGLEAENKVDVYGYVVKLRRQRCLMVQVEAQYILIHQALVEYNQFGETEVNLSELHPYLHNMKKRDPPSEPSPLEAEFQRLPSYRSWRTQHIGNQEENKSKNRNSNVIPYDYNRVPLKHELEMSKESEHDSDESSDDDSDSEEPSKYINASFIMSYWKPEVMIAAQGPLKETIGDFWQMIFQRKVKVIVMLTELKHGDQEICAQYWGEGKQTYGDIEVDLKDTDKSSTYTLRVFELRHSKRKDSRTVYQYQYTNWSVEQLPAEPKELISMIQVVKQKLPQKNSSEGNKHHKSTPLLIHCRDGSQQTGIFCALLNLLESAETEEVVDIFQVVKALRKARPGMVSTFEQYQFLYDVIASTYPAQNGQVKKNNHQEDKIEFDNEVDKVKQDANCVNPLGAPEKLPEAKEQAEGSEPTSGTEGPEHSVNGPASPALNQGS

Bovine PP2B = target: T2, Bovine PP2B (Bos taurus, UniProt P48452); test: Inhibition constant determination, selectivity panel: PP2B (pNPP hydrolysis)
T2 construct: purchased Sigma C1907

Cdc25c = target: T3, Cdc25c (Homo sapiens, UniProt P30307); test: Inhibition constant determination, selectivity panel: Cdc25c (pNPP hydrolysis)
T3 construct: GST (glutathione-S-transferase); made in house; host or cells: E. coli
T3 sequence (P30307 1-473): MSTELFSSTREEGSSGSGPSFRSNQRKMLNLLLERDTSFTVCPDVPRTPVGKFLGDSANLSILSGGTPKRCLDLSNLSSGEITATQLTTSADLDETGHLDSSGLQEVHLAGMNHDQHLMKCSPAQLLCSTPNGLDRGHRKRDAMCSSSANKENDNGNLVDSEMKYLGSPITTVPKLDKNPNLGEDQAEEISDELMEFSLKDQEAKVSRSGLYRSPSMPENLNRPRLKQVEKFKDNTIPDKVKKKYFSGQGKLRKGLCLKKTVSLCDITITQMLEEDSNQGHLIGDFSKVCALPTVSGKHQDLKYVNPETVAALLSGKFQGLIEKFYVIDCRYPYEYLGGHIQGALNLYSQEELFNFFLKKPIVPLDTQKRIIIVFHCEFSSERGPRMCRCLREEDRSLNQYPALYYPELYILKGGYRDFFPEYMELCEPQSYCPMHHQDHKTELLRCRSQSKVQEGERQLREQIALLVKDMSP

SHP-2 (full length) = target: T4, SHP-2 (full length) (Homo sapiens, UniProt Q06124); test: Inhibition constant determination, selectivity panel: SHP-2 (pNPP hydrolysis)
T4 construct: SHP-2 (full length) was expressed in from E. coli; made in house; host or cells: E. coli

LAR = target: T5, LAR (Homo sapiens, UniProt P10586); test: Inhibition constant determination, selectivity panel: LAR (pNPP hydrolysis)
T5 construct: purchased New England Biolabs P0750L
T5 sequence (P10586 1301-1639 limits assumed): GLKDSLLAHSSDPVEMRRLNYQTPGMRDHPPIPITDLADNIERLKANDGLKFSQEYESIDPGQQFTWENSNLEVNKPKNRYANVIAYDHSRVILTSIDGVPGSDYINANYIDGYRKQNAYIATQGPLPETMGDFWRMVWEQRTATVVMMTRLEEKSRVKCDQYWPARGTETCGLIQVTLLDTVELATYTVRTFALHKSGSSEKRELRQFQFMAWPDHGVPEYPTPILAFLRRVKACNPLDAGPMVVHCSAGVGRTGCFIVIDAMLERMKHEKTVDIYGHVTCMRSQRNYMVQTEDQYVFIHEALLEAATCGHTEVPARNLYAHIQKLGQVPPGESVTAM

SMILES: CCc1cc(C[C@H](NC(C)=O)C(=O)NCCCCOc2cccc(O)c2C(=O)OC)ccc1N(C(=O)C(=O)O)c1ccccc1C(=O)O [Example 13, methyl 2-{4-[(N-acetyl-4-[(carboxycarbonyl)(2-carboxyphenyl)amino]-3-ethylphenylalanyl)amino]butoxy}-6-hydroxybenzoate]
- selective for PTP1B over CD45 (CD45): 2,000 fold
- selective for PTP1B over PP2B (Bovine PP2B): 2,000 fold
- selective for PTP1B over Cdc25C (Cdc25c): 2,000 fold
- selective for PTP1B over SHP-2 (SHP-2 (full length)): 50 fold
- selective for PTP1B over LAR (LAR): 50 fold
